Apparent affinities of Ab-14 variants for a coronavirus HR2 peptide

Values reported by Li et al. 2023, doi:10.1038/s41467-023-39022-2 (FLAb copy).

Binding partner: SARS-CoV-2 spike HR2 peptide, sequence PDVDLGDISGINAS.

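The starting antibody came from a phage panning campaign against this peptide. This is the validation round: designs drawn from the data on random variants, tested in the same kind of assay. Group labels follow the data file (Ctrl: baseline library sampled from a position-specific scoring matrix, with some repeated check sequences; Rand: our label for a block that the file lists under HC and that is probably the random mutants of the ten best first-round binders; En: ensemble of fine-tuned language models; GP: Gaussian process model; GPLM: also part of the Gaussian process libraries; HC: hill climbing; Gen: genetic algorithm; Gibbs: Gibbs sampling; a sequence that several methods proposed may carry one label only). AlphaSeq pools MATa yeast showing the antibodies with MATalpha yeast showing the peptide. The frequency of each diploid, read from paired DNA barcodes, reflects how well the two displayed proteins bind. A regression on co-assayed BCL2-family reference pairs converts the normalised counts of each replicate to an apparent Kd. The assay was run in six technical replicates.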

Parent scFv Ab-14: VH joined to VL by a (GGGGS)3 linker. Changes lie in the heavy chain CDRs alone.
VH: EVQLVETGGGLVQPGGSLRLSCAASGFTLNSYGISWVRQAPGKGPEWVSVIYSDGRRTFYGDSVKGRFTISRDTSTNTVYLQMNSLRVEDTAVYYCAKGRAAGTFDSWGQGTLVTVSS
VL: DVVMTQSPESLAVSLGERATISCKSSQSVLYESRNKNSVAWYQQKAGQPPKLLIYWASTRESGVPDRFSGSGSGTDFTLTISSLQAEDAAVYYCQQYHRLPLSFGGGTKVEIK

Each variant is given by its three heavy chain CDRs, as the data file delimits them; those of the parent are GFTLNSYGIS, VIYSDGRRTFYGDSVK, GRAAGTFDS.
Scale: log10 of Kd in nM, estimated from mating counts; low values are strong binders.
A mean of the replicates is given; it leaves out those without a signal.
"no signal" means that the variant was in the library but no mating with the target was seen in any replicate; the authors take this as a sign of poor binding, and no number exists.
The list is sorted by this average, lowest first, undetected variants last.
The range of this assay differs from that of the first round, and the authors advise against merging the two.

mean, log10 nM	replicates with signal	signal with controls	CDR-H1	CDR-H2	CDR-H3	group
-1.41	6/6	0/18	GFDLNEYGIS	VIYADGMRTVYADDVK	GNVAGTFDL	En_Gen
-1.15	4/6	0/18	GFDLNEYGIS	VIYADGRRTFYSDSVK	GEAAGTFDQ	En_HC
-0.85	5/6	0/18	GFDLNEYGIS	VIYADGVRTAYADSVK	GQVAGTFDT	En_Gen
-0.75	6/6	0/18	GFDLDEYGIS	VIYADGRRTAYADSVK	GNVAGTFDQ	En_Gen
-0.70	6/6	0/18	GFDLDEYGIS	VIYADGRRTFYADSVK	GTNAGTFDM	En_HC
-0.63	3/6	0/18	GFDLNEYGIS	VIYADGMRTFYADSVK	GEAAGSFDQ	En_HC
-0.56	6/6	0/18	GFDLNEYGIS	VIYADGRRTFYADSVK	GNTAGTFNS	En_HC
-0.48	6/6	0/18	GFDLNEYGIS	VIYADGVRTAYADSVK	GNNAGTFDV	En_Gen
-0.41	6/6	0/18	GFNLNEYGIS	VIYADGRRTFYADSVK	GDAAGTFDV	En_HC
-0.19	6/6	0/18	GFELNSYGIS	VIYSDGRRTFYGDSVK	GDEAGTFDT	GP_Gibbs
-0.19	6/6	1/18	GFDLNEYGIS	VIYADGVRTAYTDSVK	GNQAGTFDI	En_Gen
0.36	6/6	0/18	GFELNSYGIS	VIYSDGRRTFYGDSVK	GSIAGTFDS	GPLM_Gibbs
0.69	6/6	0/18	GFELNKYGIS	VIYSDGRRTFYGDQVK	GRQAGTFDS	GP_Gibbs
0.77	4/6	0/18	GFELNSYGIS	VIYSDGRRTFYIDSVK	GQAAGTFDK	GPLM_Gibbs
0.97	2/6	0/18	GFTLNSYGIS	VIYSDGRRTFYKDSVK	GRLAGTFDS	Ctrl
1.06	6/6	0/18	EMDLQEFGIS	VIYADGKREAYKDDFK	GQVAGTFDL	En_Gibbs
1.12	6/6	0/18	GFNLNSYGIS	VIYSDGRRTFYKDSVK	GMTAGTFDS	GP_Gibbs
1.14	6/6	0/18	GFSLNSYGIS	VIYSDGRRTFYGDSVK	GMTAGTFDS	GPLM_Gen
1.21	6/6	0/18	GFTLNEYGIS	VIYSDGRRTFYGDSVK	GRAGGTFMS	GP_HC
1.21	6/6	0/18	GQNLDEYGIS	VIYADGMRKWYADSVK	GNMSVGLVA	En_Gibbs
1.25	1/6	0/18	KFDLNSYGIS	VIYSDGRRTFYGDSVK	GQTAGTFDS	GP_Gen
1.31	5/6	0/18	GFTLNSYGIS	VIYSDGRRTFYQDSVK	GLLAGTFDS	GP_HC
1.31	6/6	0/18	GFTLNSYGIS	VIYSDGRREFYDDSVK	GQLAGTFDS	Rand
1.43	1/6	0/18	GFELNSYGIS	VIYSDGKRTFYGDMVK	GRTAGTFDS	GP_Gibbs
1.46	2/6	0/18	KFTLNSYGIS	VIYSDGRRTFYDDSVK	GQTAGTFDS	GPLM_HC
1.52	4/6	0/18	GFTLNSYGIS	VIYSDGRRTFYGDSVK	GWTAGTFDS	GPLM_Gen
1.53	3/6	0/18	GFTLNKYGIS	VIYSDGRRTFYSDSVK	GRAGGTFDS	Rand
1.54	3/6	0/18	GFTLNEYGIS	VIYSDGRRTFYGDSVK	GTVAGTADS	Ctrl
1.80	3/6	0/18	QFDLNSYGIS	VIYSDGRRTFYGDSVK	GRTAGTFDS	GP_Gen
2.06	4/6	0/18	GFTIESYGIS	VIYSDGRRTFYGDSVK	GRAAGTFDS	Ctrl
3.02	1/6	1/18	GFDLNSYGIS	VIYSDGRRTFYGDSVK	GRAAGWFNS	En_HC
3.35	1/6	0/18	GFALNSYGIS	VIYSDGRRTFYGDSVK	GREADTFDS	Ctrl
3.57	1/6	1/18	GFTLNQYGIS	VIYSDGRRTFYEDSVK	GRAKGTFPS	Ctrl
no signal	0/6	1/18	GFDLNEYGIS	VIYADGLRTQYAESFK	GDLAGYLDS	En_Gibbs
no signal	0/6	0/18	GFTLNSYGIS	VIYSDGRRTFYGDSVK	GRAAKTFDD	Ctrl
no signal	0/6	0/18	GFTLNSYGIE	VIYSDGRRTFYDDSVK	GALAGTFDS	Rand
no signal	0/6	0/18	GFTMNSYGIS	VIYSDHRRTFYDDSVK	GQTAGTFDS	Rand
no signal	0/6	0/18	GFTLNSYGIS	VIYSDGRRTFYGDSVK	GQLAGTFMS	Ctrl
no signal	0/6	0/18	GNHLNSYGIS	VIYSDGRRTFYGDSVK	GRAAGTFDS	Ctrl
no signal	0/6	0/18	GFDLNSYGIS	VIYSDGRRTFYTDSVK	GHAAGTFDS	GP_Gen
no signal	0/6	0/18	GHTLNSYQIS	VIYSDGRRTFYDDSVK	GQLAGTFDS	Rand
no signal	0/6	0/18	GFDLNSYGIS	VIYSDGRRTFYGDSVK	GRAAGWFNK	Rand
no signal	0/6	0/18	GRNLDEYGIS	VIYADGERTSYRDNVK	GQTSGHLDM	En_Gibbs
no signal	0/6	1/18	GFTCNQYGIS	VIYSDGRRTFYSDSVK	GRAAGFFDS	Rand
no signal	0/6	0/18	GFTLNDYGIS	VIYSDGRRTQYIDSVK	GRAAGTRDS	Rand
no signal	0/6	0/18	GFDLGEYGVS	VIYADGKRTFYADHVK	GVNAGGFDT	En_Gibbs
no signal	0/6	0/18	GEDLQEYGIS	VIYADGQRQEYSDDVK	GQTAGHFLH	En_Gibbs

3 of these entries, quoted again:

CDR-H1	CDR-H2	CDR-H3	group	mean, log10 nM	replicates with signal	signal with controls
GRNLDEYGIS	VIYADGERTSYRDNVK	GQTSGHLDM	En_Gibbs	no signal	0/6	0/18
GFDLGEYGVS	VIYADGKRTFYADHVK	GVNAGGFDT	En_Gibbs	no signal	0/6	0/18
GFNLNEYGIS	VIYADGRRTFYADSVK	GDAAGTFDV	En_HC	-0.41	6/6	0/18

Empty control strains, which show no peptide, gave a signal in 1% of pairings with all heavy chain designs; the median was 2.08 and 95% of these signals were weaker than 0.84. No background was subtracted. For each scFv, signals with the empty controls are counted beside the result.
The authors' rule: three or more of the six replicates give a measured affinity, fewer mean a poor binder.